Columns and labels:
[1] = target: Aβ1–17 peptide (Anaspec); assay: ELISA
[2] = target: Aβ1–42 peptide (Anaspec); assay: ELISA

## Recombinant Flag-netrin-1 (Apotech Corp, Axxora) (from UniProt O09118 25-604) (ligand)
[1]
  Kd: 30 nM
[2]
  Kd: 22 nM
